Target: Sodium-dependent dopamine transporter (Homo sapiens, UniProt Q01959)

Sequences of proteins named here, by UniProt entry; tags and fusion partners are left off.
UniProt Q01959, whole entry: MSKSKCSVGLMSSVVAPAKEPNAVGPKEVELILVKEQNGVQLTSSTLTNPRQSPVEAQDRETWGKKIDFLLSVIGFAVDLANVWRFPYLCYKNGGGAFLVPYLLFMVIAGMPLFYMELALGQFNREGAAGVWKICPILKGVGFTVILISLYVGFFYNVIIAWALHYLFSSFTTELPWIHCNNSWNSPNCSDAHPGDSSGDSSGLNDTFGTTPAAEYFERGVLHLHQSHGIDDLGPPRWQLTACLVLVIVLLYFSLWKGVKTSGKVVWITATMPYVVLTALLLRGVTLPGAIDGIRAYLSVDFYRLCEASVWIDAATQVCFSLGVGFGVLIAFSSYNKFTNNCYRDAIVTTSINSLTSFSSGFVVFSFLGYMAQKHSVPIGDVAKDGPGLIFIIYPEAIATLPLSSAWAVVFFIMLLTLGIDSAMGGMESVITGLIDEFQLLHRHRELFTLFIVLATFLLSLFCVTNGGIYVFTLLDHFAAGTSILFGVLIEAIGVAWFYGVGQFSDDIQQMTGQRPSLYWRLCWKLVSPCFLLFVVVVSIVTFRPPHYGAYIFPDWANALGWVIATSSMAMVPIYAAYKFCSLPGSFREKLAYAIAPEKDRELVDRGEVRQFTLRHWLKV

Work on `CN(C)CCCN1c2ccccc2CCc2ccccc21` [IMIPRAMINE] yielded an IC50 of 25.6 µM.

Reference: ChEMBL document CHEMBL1138538, “Design, synthesis, and evaluation of 10-N-substituted acridones as novel chemosensitizers in Plasmodium falciparum” (Antimicrob Agents Chemother, 2007)
